From PubChem BioAssay (Tox21) come the findings set out here.

By UniProt entry, the sequences of proteins in these tests, tags left out. Where a name states a change or a piece, a line headed by the entry shows the natural chain unless it says otherwise.
UniProt Q96RI1: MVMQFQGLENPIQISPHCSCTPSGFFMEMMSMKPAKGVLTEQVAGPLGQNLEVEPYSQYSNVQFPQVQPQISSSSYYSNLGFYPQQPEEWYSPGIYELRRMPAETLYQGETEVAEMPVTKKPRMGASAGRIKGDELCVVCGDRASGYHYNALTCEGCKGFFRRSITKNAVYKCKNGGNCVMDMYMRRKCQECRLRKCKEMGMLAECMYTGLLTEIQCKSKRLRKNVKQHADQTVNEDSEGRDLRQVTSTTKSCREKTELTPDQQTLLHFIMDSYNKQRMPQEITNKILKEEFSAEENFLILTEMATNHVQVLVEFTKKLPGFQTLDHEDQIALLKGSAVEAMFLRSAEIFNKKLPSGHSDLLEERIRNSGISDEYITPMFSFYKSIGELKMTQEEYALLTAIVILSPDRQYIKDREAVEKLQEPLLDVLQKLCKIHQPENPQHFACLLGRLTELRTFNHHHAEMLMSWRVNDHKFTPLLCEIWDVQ
UniProt Q92731, whole entry, looked up: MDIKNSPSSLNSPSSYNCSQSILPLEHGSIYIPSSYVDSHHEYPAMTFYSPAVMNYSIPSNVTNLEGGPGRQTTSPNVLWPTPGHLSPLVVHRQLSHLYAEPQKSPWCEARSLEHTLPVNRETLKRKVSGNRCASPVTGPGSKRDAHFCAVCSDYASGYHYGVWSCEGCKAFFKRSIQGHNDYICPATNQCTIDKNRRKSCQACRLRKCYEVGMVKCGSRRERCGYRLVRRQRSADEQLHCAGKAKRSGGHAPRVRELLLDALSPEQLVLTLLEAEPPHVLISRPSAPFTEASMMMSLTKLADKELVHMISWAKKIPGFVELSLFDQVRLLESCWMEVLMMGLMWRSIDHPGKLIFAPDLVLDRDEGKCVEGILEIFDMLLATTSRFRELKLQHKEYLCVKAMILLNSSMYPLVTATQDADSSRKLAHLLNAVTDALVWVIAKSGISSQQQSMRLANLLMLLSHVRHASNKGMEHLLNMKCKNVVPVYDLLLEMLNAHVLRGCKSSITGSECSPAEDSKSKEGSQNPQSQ
UniProt P34981: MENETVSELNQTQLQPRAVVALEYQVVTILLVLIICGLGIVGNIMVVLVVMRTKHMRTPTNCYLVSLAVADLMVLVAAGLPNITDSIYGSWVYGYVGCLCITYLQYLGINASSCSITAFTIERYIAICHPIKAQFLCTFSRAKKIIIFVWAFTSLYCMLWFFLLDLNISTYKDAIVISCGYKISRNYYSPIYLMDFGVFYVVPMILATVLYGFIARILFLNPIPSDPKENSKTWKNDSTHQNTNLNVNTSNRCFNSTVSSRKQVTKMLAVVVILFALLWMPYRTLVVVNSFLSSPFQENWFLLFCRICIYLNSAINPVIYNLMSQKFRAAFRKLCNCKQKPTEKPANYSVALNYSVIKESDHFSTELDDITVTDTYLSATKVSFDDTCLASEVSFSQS
UniProt P03372, whole entry, looked up: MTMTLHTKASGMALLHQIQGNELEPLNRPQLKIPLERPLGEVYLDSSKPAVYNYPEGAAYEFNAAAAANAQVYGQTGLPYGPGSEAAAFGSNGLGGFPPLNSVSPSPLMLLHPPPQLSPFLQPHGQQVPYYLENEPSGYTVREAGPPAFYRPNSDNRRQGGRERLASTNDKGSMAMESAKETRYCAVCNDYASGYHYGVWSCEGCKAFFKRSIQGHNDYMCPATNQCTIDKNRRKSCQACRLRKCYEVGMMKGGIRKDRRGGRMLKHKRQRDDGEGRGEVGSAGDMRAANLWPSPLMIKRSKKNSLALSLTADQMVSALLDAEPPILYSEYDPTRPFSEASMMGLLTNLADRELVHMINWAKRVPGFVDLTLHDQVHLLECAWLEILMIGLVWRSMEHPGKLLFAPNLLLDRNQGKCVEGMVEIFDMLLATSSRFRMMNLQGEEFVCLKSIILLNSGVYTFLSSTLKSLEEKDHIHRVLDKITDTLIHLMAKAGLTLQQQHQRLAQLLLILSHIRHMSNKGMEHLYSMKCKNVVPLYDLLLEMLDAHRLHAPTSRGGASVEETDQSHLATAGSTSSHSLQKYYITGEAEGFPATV
UniProt P10275: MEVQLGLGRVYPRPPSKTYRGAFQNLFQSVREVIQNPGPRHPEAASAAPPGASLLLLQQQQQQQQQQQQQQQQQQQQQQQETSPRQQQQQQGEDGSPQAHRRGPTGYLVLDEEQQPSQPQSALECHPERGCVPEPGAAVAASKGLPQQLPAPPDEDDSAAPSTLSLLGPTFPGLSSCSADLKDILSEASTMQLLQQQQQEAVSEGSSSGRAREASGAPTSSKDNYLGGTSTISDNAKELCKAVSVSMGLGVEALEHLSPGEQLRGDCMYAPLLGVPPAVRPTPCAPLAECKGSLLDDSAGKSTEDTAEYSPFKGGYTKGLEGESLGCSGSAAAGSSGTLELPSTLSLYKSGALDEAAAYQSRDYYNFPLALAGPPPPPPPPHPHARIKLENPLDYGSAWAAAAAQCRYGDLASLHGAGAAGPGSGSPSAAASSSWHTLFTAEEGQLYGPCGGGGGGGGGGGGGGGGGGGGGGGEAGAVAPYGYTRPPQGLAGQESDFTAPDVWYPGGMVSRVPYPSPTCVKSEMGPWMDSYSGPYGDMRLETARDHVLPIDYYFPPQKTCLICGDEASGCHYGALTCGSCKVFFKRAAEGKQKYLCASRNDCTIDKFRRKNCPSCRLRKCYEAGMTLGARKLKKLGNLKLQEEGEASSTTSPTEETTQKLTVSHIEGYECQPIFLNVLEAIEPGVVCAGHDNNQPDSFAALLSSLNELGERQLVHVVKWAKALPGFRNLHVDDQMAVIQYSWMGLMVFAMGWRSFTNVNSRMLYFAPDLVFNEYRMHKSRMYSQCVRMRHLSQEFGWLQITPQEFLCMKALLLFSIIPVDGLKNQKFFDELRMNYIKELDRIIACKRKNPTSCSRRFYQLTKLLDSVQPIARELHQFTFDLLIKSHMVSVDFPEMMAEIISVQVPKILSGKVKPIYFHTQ
UniProt P35869: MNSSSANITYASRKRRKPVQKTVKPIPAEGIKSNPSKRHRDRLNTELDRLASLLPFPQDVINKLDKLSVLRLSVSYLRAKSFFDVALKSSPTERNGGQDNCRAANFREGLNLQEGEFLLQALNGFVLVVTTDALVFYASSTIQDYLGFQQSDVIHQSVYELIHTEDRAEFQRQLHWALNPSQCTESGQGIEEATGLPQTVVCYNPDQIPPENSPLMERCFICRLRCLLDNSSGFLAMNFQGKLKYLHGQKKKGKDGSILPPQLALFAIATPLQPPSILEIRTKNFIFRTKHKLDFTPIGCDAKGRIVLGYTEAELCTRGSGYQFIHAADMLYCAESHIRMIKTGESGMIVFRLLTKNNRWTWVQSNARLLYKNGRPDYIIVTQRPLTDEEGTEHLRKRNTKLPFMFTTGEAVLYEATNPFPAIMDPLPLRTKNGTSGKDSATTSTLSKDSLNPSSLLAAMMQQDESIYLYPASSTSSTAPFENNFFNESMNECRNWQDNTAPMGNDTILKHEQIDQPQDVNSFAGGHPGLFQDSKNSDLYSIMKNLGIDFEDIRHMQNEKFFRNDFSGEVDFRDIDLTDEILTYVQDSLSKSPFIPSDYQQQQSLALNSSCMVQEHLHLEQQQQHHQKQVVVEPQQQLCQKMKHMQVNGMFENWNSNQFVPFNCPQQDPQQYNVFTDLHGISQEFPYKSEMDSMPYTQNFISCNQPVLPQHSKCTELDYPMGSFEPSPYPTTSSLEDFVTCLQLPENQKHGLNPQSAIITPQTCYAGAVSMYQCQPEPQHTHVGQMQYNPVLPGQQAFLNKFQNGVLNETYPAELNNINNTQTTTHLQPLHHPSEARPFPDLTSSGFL

Assay [1] deals with Bile acid receptor (Homo sapiens) (UniProt Q96RI1). The experiment in a line: qHTS assay to identify small molecule antagonists of the farnesoid-X-receptor (FXR) signaling pathway (AID 743217; active = well fitted inhibition curve with a large enough effect in the signal ratio in the repeat runs, not every such curve was filed as active; the % refers to the signal ratio). The note with it: HEK293T FXR-UAS-bla, beta-lactamase ratio, CDCA-stimulated, 16 h; at 62.6 µM (top of the series). The procedure, abridged: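 Screen of the Tox21 10K library in quantitative HTS format using FXR-UAS-bla HEK 293T reporter cells. Agonist chenodeoxycholic acid, 50 uM final, added with compounds; 16 h incubation at 37 °C; beta-lactamase FRET fluorescence measured.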
(In general: qHTS replaces the single test concentration by a dilution series.)

The target is the same in assay [2]. Description: qHTS assay to identify small molecule agonists of the farnesoid-X-receptor (FXR) signaling pathway (AID 743220; active = well fitted activation curve with a large enough effect in the signal ratio in the repeat runs, not every such curve was filed as active; the % refers to the signal ratio). As to conditions: HEK293T FXR-UAS-bla, beta-lactamase FRET ratio, 16 h; at 62.6 µM (top of the series).
In assay [3] the target is Estrogen receptor beta (Homo sapiens) (UniProt Q92731). Description: qHTS assay to identify small molecule antagonists of the estrogen receptor beta (ER-beta) signaling pathway (AID 1259378; active = well fitted inhibition curve with a large enough effect in the signal ratio in the repeat runs, not every such curve was filed as active; the % refers to the signal ratio; also: potency is read from the fitted curve at half-maximal effect). As to conditions: ER-beta-UAS-bla HEK293T, beta-lactamase FRET ratio, 16 h; series mostly up to 42.5 µM. The procedure, abridged:
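Antagonist mode: compounds added to beta-lactamase reporter HEK293T ER-beta-UAS cells stimulated with E2 (1nM final), 16 hr at 37C. LiveBLAzer B/G FRET substrate, 2 hours room temperature, fluorescence read-out.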

For assay [4] the target is unchanged. The experiment in a line: qHTS assay to identify small molecule agonists of the estrogen receptor beta (ER-beta) signaling pathway (AID 1259377; active = well fitted activation curve with a large enough effect in the signal ratio in the repeat runs, not every such curve was filed as active; the % refers to the signal ratio). The note with it: ER-beta-UAS-bla HEK293T, beta-lactamase FRET ratio, 16 h; at 92.4 µM (top of the series) unless noted.
Assay [5] addresses Nuclear receptor subfamily 1 group I member 2 (Homo sapiens) (UniProt O75469). The experiment in a line: Human pregnane X receptor (PXR) small molecule agonists, qHTS assay (AID 1346982). Also: nearly all actives have a fitted effect of over 35% in size. Also: potency is read from the fitted curve at half-maximal effect. The note with it: PXR-Luc HepG2, CYP3A4 luciferase reporter, 24 h; series mostly up to 42.5 µM. The method in brief: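 Reporter HepG2 cells expressing PXR-Luc are cultured in charcoal-stripped FBS (5%), treated with compounds for 24 hr at 37 C, and assayed by ONE-Glo luminescence after 30 min at room temperature.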

Assay [6] addresses Thyrotropin-releasing hormone receptor (Homo sapiens) (UniProt P34981). Description: qHTS assay to identify small molecule antagonists of the thyrotropin-releasing hormone receptor (TRHR) signaling pathway (AID 1346877; active = well fitted inhibition curve with a large enough effect in the repeat runs, not every such curve was filed as active). The note with it: TRHR-HEK293, TRH-induced calcium fluorescence, antagonist mode.
In assay [7] the target is Estrogen receptor (Homo sapiens) (UniProt P03372). The experiment in a line: qHTS assay to identify small molecule agonists of the estrogen receptor alpha (ER-alpha) signaling pathway in the presence of an antagonist (AID 1259383; calls by dose curve; also: nearly all actives have a fitted effect of over 15% in size; also: potency is read from the fitted curve at half-maximal effect; as to activation: top concentration of the series differs between compounds). The note with it: VM7Luc4E2 cells, ERE-luciferase, +ICI-182,780, 22 h; series mostly up to 92.4 µM.
The target is the same in assay [8]. Description: qHTS assay to identify small molecule agonists of the estrogen receptor alpha (ER-alpha) signaling pathway (AID 743075; calls by dose curve;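 also: HEK293 GripTite cells with ER-alpha and UAS-driven beta-lactamase reporter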). As to conditions: HEK293 ER-alpha-UAS-bla, beta-lactamase FRET ratio, 18 h; series mostly up to 70.1 µM.
Assay [9] shares this target. The experiment in a line: qHTS assay to identify small molecule agonists of the estrogen receptor alpha (ER-alpha) signaling pathway using the BG1 cell line (AID 743079). Also: nearly all actives have a fitted effect of over 20% in size. Also: potency is read from the fitted curve at half-maximal effect. The note with it: BG1Luc4E2 cells, ERE-luciferase agonist, 22 h; series mostly up to 70.3 µM.
Assay [10] has the same target. The experiment in a line: qHTS assay to identify small molecule antagonists of the estrogen receptor alpha (ER-alpha) signaling pathway using the BG1 cell line in the presence of 0.1 nM 17-beta-estradiol (AID 1259244). Also: nearly all actives have a fitted effect of over 50% in size. The note with it: VM7Luc4E2 (BG1) ERE-luciferase, antagonist mode, 0.1 nM E2, 22 h.
Assay [11] shares this target. The experiment in a line: qHTS assay to identify small molecule antagonists of the estrogen receptor alpha (ER-alpha) signaling pathway (AID 743069; active = well fitted curve in the direction sought with a large enough effect in the signal ratio in the repeat runs, not every such curve was filed as active; the % refers to the signal ratio). As to conditions: HEK293 ER-alpha-UAS-bla, beta-lactamase ratio, antagonist mode; series mostly up to 69.4 µM.
For assay [12], the target named is Androgen receptor (Homo sapiens) (UniProt P10275). Description: qHTS assay to identify small molecule antagonists of the androgen receptor (AR) signaling pathway using the MDA cell line (AID 743042; also: nearly all actives have a fitted effect of over 55% in size). The note with it: MDA-kb2 AR-luc, MMTV luciferase, R1881 antagonist, 16 h; series mostly up to 70.3 µM.
Assay [13] shares this target. Description: qHTS assay to identify small molecule antagonists of the androgen receptor (AR) signaling pathway using the MDA cell line in the presence of 0.5 nM R1881 (AID 1259243). Also: nearly all actives have a fitted effect of over 50% in size. As to conditions: MDA-kb2 MMTV-luciferase, R1881 0.5 nM, 16 h; series mostly up to 42.5 µM.
The target of assay [14] is Aryl hydrocarbon receptor (Homo sapiens) (UniProt P35869). Description: qHTS assay to identify small molecule that activate the aryl hydrocarbon receptor (AhR) signaling pathway (AID 743085).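 Also: HG2L7.5c1 human HepG2 liver cells with stably integrated DRE-driven firefly reporter; nearly all actives have a fitted effect of over 15% in size.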 The note with it: HepG2 AhR-luc (HG2L7.5c1), luciferase, 24 h; at 32.5 µM (top of the series).
Assay [15] is described as follows: Caspase-3/7 induction in HepG2 cells by small molecules, qHTS assay (AID 1346978). Also: nearly all actives have a fitted effect of over 15% in size. As to conditions: HepG2 caspase-3/7 activation, Caspase-Glo luminescence, 17 h; at 42.5 µM (top of the series). The procedure, abridged:
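Caspase-3/7 induction was measured by Caspase-Glo 3/7 luminescence (30 min, room temperature) after a 17 hr compound exposure of wild-type HepG2 cells seeded at 2,000 per well and pre-incubated 5 hr.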

Assay [16] deals with Nuclear receptor subfamily 1 group I member 2 (Homo sapiens) (UniProt O75469). Description: CYP3A4 induction through human pregnane X receptor (PXR) by small molecules, qHTS assay (AID 1346984). Also: nearly all actives have a fitted effect of over 40% in size. As to conditions: DPX-2 HepG2 PXR, CYP3A4-luciferin luminescence, 24 h; series mostly up to 46.1 µM. The method in brief: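 Induction measured in HepG2-based DPX-2 cells co-expressing human PXR and a CYP3A4 promoter-driven luciferase. After a 24-hour compound exposure, cells received CYP3A4 luciferin substrate at 3uM final for 3 hours, and light output was then recorded.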

For assay [17] the target is unchanged. Description: Human pregnane X receptor (PXR) activation by small molecules, qHTS assay (AID 1346985). Also: nearly all actives have a fitted effect of over 40% in size. As to conditions: DPX-2 HepG2 CYP3A4-luciferase, 24 h; series mostly up to 38.3 µM.

“And” between values parts separate entries of the source, which are not always exact repeats. Equal values may be shown once. For some assays here: Shown are results outside the selection of hits, which stands elsewhere. Results filed as inconclusive are left out. More than one record can exist for a structure, and the calls need not agree. The entries are a selection whose mix differs from that of the whole data set. The source made the active and inactive calls. Unless noted, calls follow the shape of the dose curve; as a rule, active = well fitted curve in the direction sought with a large enough effect in the repeat runs; inconclusive = weak or mixed curves; inactive = no such curve, though single readings can be large; an effect the other way counts as inactive or inconclusive.
% is scaled to controls: 0 for no effect and ±100 for the full control effect.

On to `CC(C)(C)NC(=O)[C@@H]1CN(Cc2cccnc2)CCN1C[C@@H](O)C[C@@H](Cc1ccccc1)C(=O)N[C@H]1c2ccccc2C[C@H]1O`, for which the activity change, negative = inhibition in assay [1] was inactive: -0.0612% and inactive: 0.774%. The activation in assay [2] is inactive: 0.674% and inactive: -0.303%. The Potency entry in assay [3] was “inactive”.
In the case of `O=S(=O)(O)c1ccccc1`, the activation in assay [4] is inactive: 8.55% and inactive: -1.96%. In addition, the Potency entry in assay [3] and in [5] was “inactive” throughout.
As for `CN1CCc2cccc3c2[C@H]1Cc1ccc(O)c(O)c1-3`, in [3], the Potency was active: 24.6 µM and active: 23.7 µM.
As for `Nc1nc2c(ncn2COCCO)c(=O)[nH]1`, the activity, negative = inhibition in assay [6] (at 23.6 µM (top of the series)) is inactive: 6.59%.
For the compound `CC[C@]1(O)C[C@@H]2CN(CCc3c([nH]c4ccccc34)[C@@](C(=O)OC)(c3cc4c(cc3OC)N(C)[C@H]3[C@@](O)(C(=O)OC)[C@H](OC(C)=O)[C@]5(CC)C=CCN6CC[C@]43[C@@H]65)C2)C1`, the Potency entry in assay [3] and in assay [7] was “inactive” in each case.
`CCCCCCCCCCCC`: the Potency result in assay [8], in [9] and in [7] was “inactive” each time. For the same compound, the activity change, negative = inhibition in assay [10] (at 92.4 µM (top of the series)) was inactive: 3.47%.
Consider `NNCCc1ccccc1`, for which the Potency result in [11] and in [8] was “inactive” each time. Besides, the Potency in assay [9] is active: 3.2 µM and active: 27.4 µM; in assay [7], active: 9.72 µM and inactive. Also, the activity change, negative = inhibition in assay [1] was inactive: -11.6% and inactive: -5.91%; in assay [10] (at 42.5 µM (top of the series)) it was inactive: 67.2%; in assay [10] (at 92.4 µM (top of the series)) it was inactive: 51.8%. Also, the activation in assay [2] was inactive: 0.83%.
With `C[N+](C)(C)CCO`, the Potency entry in [11], in assay [8] and in assay [7] was “inactive” in each case. For the same compound, the activity change, negative = inhibition in [10] (at 92.4 µM (top of the series)) was inactive: 18.6% and inactive: -3.04%.
For `NC(=O)c1nc(-c2cccc(-c3cc(F)ccc3OCC(F)(F)C(F)(F)F)c2)n[nH]1`, the Potency in [3] is active: 21.7 µM.
The same measure, in the same setting: the result for `Nc1cc(S(=O)(=O)O)cc2cc(S(=O)(=O)O)cc(O)c12` reads “inactive”.
Take `CC(COc1ccccc1)NN` (stereo unspecified): in [6] (at 23.6 µM (top of the series)), the activity, negative = inhibition is inactive: -4.43%.
With `[Cl][Pt-2]([Cl])([Cl])[Cl]`, the Potency result in [12] and in assay [13] was “inactive” throughout.
In the case of `N[C@@H](CCC(=O)O)C(=O)O`, in assay [3], the Potency result is “inactive”.
Same read-out and setting: the result for `NC(CCC(=O)O)C(=O)O` (stereo unspecified) reads “inactive”; that for `C[N+](C)(C)CCCCCCCCCC[N+](C)(C)C`, “inactive”.
The same measure, in the same setting: to `CCCCCCCCCCCC[N+](C)(C)C` belongs active: 34.4 µM.
Same read-out and setting: to `CC[N+]1(CC)CCC(=C(c2ccccc2)c2ccccc2)C1C` (stereo unspecified) belongs “inactive”; to `CC(=O)CCC(=O)O`, “inactive”.
For the compound `O=C(O)[C@@H](O)[C@H](O)[C@H](O)[C@@H](O)C(=O)O`, in assay [10] (at 42.5 µM (top of the series)), the activity change, negative = inhibition is inactive: 7.4%. Further, in assay [7], the Potency entry is “inactive”.
On to `O=C1CC[C@H](C(=O)N2CCCCC2)N1`, for which the activity, negative = inhibition in [6] (at 23.6 µM (top of the series)) was inactive: 0.522%.
As to `CC(C)NCC(O)c1cc(O)cc(O)c1` (stereo unspecified), the Potency result in assay [11], in assay [8], in assay [9] and in assay [7] was “inactive” each time. Besides, the activity change, negative = inhibition in assay [10] (at 42.5 µM (top of the series)) is inactive: 1.79%.
As to `Oc1ccc(C(O)CNCCCCCCNCC(O)c2ccc(O)c(O)c2)cc1O` (stereo unspecified), the Potency result in assay [11], in assay [8], in [9], in [3] and in [7] was “inactive” throughout. Further, the activity change, negative = inhibition in assay [10] (at 42.5 µM (top of the series)) was inactive: -2.72%.
For `Cc1cccc(C)c1OCC(=O)N[C@@H](Cc1ccccc1)[C@@H](O)C[C@H](Cc1ccccc1)NC(=O)[C@H](C(C)C)N1CCCNC1=O`, the activity, negative = inhibition in [6] (at 23.6 µM (top of the series)) is inactive: -11.6%.
`CSCC[C@H](NC(=O)[C@H](Cc1c[nH]c2ccccc12)NC(=O)CCNC(=O)OC(C)(C)C)C(=O)N[C@@H](CC(=O)O)C(=O)N[C@@H](Cc1ccccc1)C(N)=O`: the activity, negative = inhibition in assay [6] (at 23.6 µM (top of the series)) was inactive: -2.22%.
Turning to `O=C(O)c1cn(C2CC2)c2cc(N3CCNCC3)c(F)cc2c1=O`, in assay [14], the activation is inactive: -1.47%. For the same compound, in [15], the caspase activation was inactive: -1.01%.
Consider `Cc1cc(CC(=O)O)n(C)c1C(=O)c1ccc(Cl)cc1`, for which the Potency entry in [5] is “inactive”.
As to `CC(C)OC(=O)C(C)(C)Oc1ccc(C(=O)c2ccc(Cl)cc2)cc1`, the figures for the activity, negative = inhibition in assay [6] (at 23.6 µM (top of the series)) and in assay [6] (at 51.3 µM (top of the series)) were inactive: -2.49% and inactive: -0.0727%, respectively.
With `CCCc1nn(C)c2c(=O)[nH]c(-c3cc(S(=O)(=O)N4CCN(C)CC4)ccc3OCC)nc12`, the Potency in assay [5] is active: 11.9 µM.
For `NNc1nncc2ccccc12`, the activity, negative = inhibition was inactive: 4.6% in [6] (at 10.5 µM (top of the series)) and inactive: 10.2% in [6] (at 51.3 µM (top of the series)). For the same compound, the Potency in [5] is active: 54.5 µM. In addition, the Potency result in [16] and in assay [17] was “inactive” in each case.
On to `O=c1[nH]c(=O)n([C@H]2C[C@H](O)[C@@H](CO)O2)cc1I`, for which, in [5], the Potency result was “inactive”.
Still for that read-out and setting: to `COc1ccc(C2CNC(=O)C2)cc1OC1CCCC1` (stereo unspecified) belongs “inactive”.
With `NC(=O)c1cccnc1`, the activity, negative = inhibition is inactive: 3.7% in [6] (at 23.6 µM (top of the series)); inactive: 1.3% and inactive: 0.742% in [6] (at 51.3 µM (top of the series)).
Turning to `Cc1ccccc1OCC(O)CO` (stereo unspecified), the Potency result in [5] was “inactive”.
On the same count and under the same terms, to `Cc1cc(NC(=O)C2=C(O)c3ccccc3S(=O)(=O)N2C)no1` belongs “inactive”.
Same read-out and setting: to `C[C@H]1O[C@H](O[C@H]2[C@H](O)[C@@H](O)[C@@H](O[C@H]3[C@H](O)[C@@H](O)[C@H](O)O[C@@H]3CO)O[C@@H]2CO)[C@H](O)[C@@H](O)[C@@H]1N[C@H]1C=C(CO)[C@@H](O)[C@H](O)[C@H]1O` belongs “inactive”.
